Data taken from US20220204495A1, “INHIBITING TRABID” (Valo Health, Inc., priority 2019, published 2022).

The chains behind the UniProt entries cited, without tags or fusion partners. Residues count along the entry.
UniProt Q9UGI0, 245-697 limits assumed: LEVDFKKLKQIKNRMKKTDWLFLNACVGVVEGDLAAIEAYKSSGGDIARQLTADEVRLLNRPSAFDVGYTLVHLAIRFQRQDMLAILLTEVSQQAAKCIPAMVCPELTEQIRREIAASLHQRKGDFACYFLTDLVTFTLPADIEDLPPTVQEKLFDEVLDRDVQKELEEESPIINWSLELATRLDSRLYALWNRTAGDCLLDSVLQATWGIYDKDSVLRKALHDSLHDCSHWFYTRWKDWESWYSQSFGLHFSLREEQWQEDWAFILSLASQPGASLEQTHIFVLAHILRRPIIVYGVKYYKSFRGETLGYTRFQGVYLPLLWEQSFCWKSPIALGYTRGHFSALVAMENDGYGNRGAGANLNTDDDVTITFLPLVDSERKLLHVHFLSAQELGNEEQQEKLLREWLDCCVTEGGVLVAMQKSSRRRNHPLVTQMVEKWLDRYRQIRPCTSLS

Target: TRABID(245-697) (Homo sapiens, UniProt Q9UGI0)
Experiment: TRABID inhibition biochemical assay (Ub-Rh110MP fluorescence)
Settings: read-out: TRABID IC50; 10 nM TRABID(245-697), 25 nM Ub-Rh110MP, 30 minutes preincubation with compound, 10-point 3-fold series 26.6 μM to 1.35 nM
Experimental: TRABID enzymatic assays were performed in a final volume of 6 μL in buffer containing 20 mM Tris-HCl pH 8.0, (Corning 46-031-CM), and 1 mM GSH (Sigma, G4251), 0.03% BGG (Sigma, G7516), and 0.01% Triton X-100 (Sigma, 93443). Test compounds were serially diluted in DMSO (Sigma, G7516) to obtain 10-point, 3-fold series. Nanoliter quantities were pre-dispensed into 1536 assay plates (Corning, 9110BC) for the concentration response range, 26.6 μM to 1.35 nM. 3 μL of 2× enzyme was added to the assay plates, preincubated with compound for 30 minutes and then 3 μL of 2× substrate was added to initiate the reaction (10 nM TRABID(245-697) and 25 nM Ub-Rh110MP (UbiQ, UbiQ-126) final concentrations). Enzyme and substrate concentrations and incubation times were optimized for the maximal signal-to-background while maintaining linear initial velocity conditions at a fixed substrate concentration below Km.
Fluorescence signal was measured on an EnVision Plate Reader (PerkinElmer) equipped with 485 nm excitation filter and 535 nm emission filters.
Rates were calculated by: rate=((final FLU−initial FLU)/600 seconds) where final FLU=fluorescence at time 10 minutes, initial FLU=fluorescence at time 0 minutes and 600=duration of reaction in seconds.
Data were reported as percent inhibition compared with control wells based on the following equation: % inh=[…] where rate=measured rate of fluorescence generated during assay, AveLow=average rate of no enzyme control (n=32), and AveHigh=average rate of DMSO control (n=32).
IC50 values were determined by curve fitting of the standard 4 parameter logistic fitting algorithm included in the Activity Base software package (IDBS) using XE Designer equation Model 205. Data were fitted using the Levenburg Marquardt algorithm.

SMILES: COc1ccc(-c2cc(C(=O)N3CC[C@H](CNC#N)C3)[nH]n2)cc1
- IC50: 2.96 µM

SMILES: Cc1ccc(-c2cc(C(=O)N3CCC[C@H](CNC#N)C3)[nH]n2)cc1
- IC50: 5.21 µM

SMILES: COc1cccc(-c2cc(C(=O)N3C[C@@H]4[C@H](C3)[C@H]4NC#N)[nH]n2)c1
- IC50: 6.16 µM

SMILES: Cc1ccc(-c2cc(C(=O)N3C[C@@H]4[C@H](C3)[C@H]4NC#N)[nH]n2)cc1
- IC50: 7.76 µM

SMILES: COc1ccc(-c2cc(C(=O)N3CC[C@@]4(CC4NC#N)C3)[nH]n2)cc1 (some centres unmarked)
- IC50: 5.47 µM

SMILES: COc1ccc(-c2cc(C(=O)N3C[C@@H]4[C@H](C3)[C@H]4NC#N)[nH]n2)cc1
- IC50: 6.51 µM

SMILES: Cc1ccc(-c2cc(C(=O)N3CC[C@H](CNC#N)C3)[nH]n2)cc1
- IC50: 4.53 µM

SMILES: Cc1ccc(-c2cc(C(=O)N3CC[C@@]4(CC4NC#N)C3)[nH]n2)cc1 (some centres unmarked)
- IC50: 5.05 µM

SMILES: COc1ccc(-c2cc(C(=O)N3CCC[C@H](CNC#N)C3)[nH]n2)cc1
- IC50: 8.93 µM

SMILES: COc1ccc(-c2cc(C(=O)N3CCO[C@@H](CNC#N)C3)[nH]n2)cc1
- IC50: 8.49 µM

SMILES: COc1cccc(-c2cc(C(=O)N3CC[C@H](CNC#N)C3)[nH]n2)c1
- IC50: 3.48 µM
